Our source for the EC50 values is US20110183980A1, “O-BENZYL NICOTINAMIDE ANALOGS AS MGLUR5 POSITIVE ALLOSTERIC MODULATORS” (priority 2009, published 2011).

Chains of the proteins cited; added tags and fusions are not shown. Residues count along the entry.
UniProt P31424, 21-1203 limits assumed: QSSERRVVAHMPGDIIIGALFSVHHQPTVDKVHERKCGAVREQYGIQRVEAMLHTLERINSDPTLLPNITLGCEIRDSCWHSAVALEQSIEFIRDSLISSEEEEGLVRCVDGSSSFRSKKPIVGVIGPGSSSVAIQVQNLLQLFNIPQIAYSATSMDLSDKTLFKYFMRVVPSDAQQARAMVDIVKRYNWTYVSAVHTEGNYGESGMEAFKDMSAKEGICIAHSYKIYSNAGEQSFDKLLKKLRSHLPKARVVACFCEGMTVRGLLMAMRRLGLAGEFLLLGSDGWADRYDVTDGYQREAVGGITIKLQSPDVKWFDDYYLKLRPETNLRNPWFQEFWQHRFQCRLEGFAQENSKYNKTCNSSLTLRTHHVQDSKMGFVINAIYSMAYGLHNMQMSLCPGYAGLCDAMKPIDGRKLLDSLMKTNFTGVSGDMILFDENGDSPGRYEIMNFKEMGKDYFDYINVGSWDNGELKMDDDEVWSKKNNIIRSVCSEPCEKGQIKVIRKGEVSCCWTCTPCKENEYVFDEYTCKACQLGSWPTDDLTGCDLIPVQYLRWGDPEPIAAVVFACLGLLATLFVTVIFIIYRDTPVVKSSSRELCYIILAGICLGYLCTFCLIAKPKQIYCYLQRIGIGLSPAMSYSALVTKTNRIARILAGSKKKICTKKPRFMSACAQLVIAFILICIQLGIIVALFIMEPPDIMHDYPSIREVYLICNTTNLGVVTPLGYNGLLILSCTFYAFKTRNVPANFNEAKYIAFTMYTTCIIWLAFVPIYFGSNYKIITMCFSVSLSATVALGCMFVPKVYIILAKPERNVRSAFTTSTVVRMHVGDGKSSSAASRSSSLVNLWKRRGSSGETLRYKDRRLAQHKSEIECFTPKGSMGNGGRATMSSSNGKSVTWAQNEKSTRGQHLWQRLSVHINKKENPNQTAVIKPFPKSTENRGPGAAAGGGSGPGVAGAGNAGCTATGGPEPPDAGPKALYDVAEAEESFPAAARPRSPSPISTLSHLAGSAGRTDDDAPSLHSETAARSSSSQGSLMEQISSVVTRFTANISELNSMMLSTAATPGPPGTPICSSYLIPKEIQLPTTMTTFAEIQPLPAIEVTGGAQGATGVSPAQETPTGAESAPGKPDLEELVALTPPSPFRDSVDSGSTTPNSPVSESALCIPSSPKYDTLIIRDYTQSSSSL

The EC50 is the concentration at which the effect is half-maximal.

This assay concerns the target rat mGluR5 (Rattus norvegicus, UniProt P31424). Description: Potentiation of glutamate response, Ca2+ fluorescence (FDSS) in HEK cells transfected with rat mGluR5. The settings on record: read-out: EC50 as an mGluR5 potentiator. On the procedure:
Human embryonic kidney (HEK) cells transfected with rat mGluR5 were plated in clear bottom assay plates for assay in a Functional Drug Screening System (FDSS). The cells were loaded with a Ca^2+-sensitive fluorescent dye (e.g., Fluo-4), and the plates were washed and placed in the FDSS instrument. After establishment of a fluorescence baseline for twelve seconds, the compounds of the present invention were added to the cells, and the response in cells was measured. Five minutes later, an mGluR5 agonist (e.g., glutamate, 3,5-dihydroxyphenylglycine, or quisqualate) was added to the cells, and the response of the cells was measured. […]
The above described assay operated in two modes. […] If a compound acted as a potentiator, an EC50 value for potentiation and a maximum extent of potentiation by the compound at this concentration of agonist was determined by non-linear curve fitting. In the second mode, several fixed concentrations of the present compounds were added to various wells on a plate, followed by a range of concentrations of agonist for each concentration of present compound; the EC50 values for the agonist at each concentration of compound were determined by non-linear curve fitting. […]

For the compound `C[C@H](NC(=O)c1ccc(OCc2cccc(F)c2)nc1)C1CCCCC1`, the EC50 was greater than 10 µM.
